The target in data set [1] is Human immunodeficiency virus type 1 reverse transcriptase (Human immunodeficiency virus 1, UniProt Q72547). Nature of the data set: Inhibition of wild-type HIV1 Reverse transcriptase p66/p51 assessed as relative fluorescence signal after 40 mins.
Data set [2] can be described thus: Selectivity index, ratio of CC50 for mock-infected human MT4 cells to EC50 for HIV1 3B infected in human MT4 cells. The data set is classed as toxicity, cell-based. As to conditions: mock-infected (CC50) and HIV1 3B infected (EC50).

As for `Cc1cc(C#N)cc(C)c1Oc1nc(Nc2ccc(C#N)cc2)nc(N)c1Br` [ETRAVIRINE], the half-maximal inhibitory concentration (IC50) in data set [1] turned out to be 11 nM. Also, the selectivity ratio in data set [2] stood at 7500.

By IC50 is commonly meant the midpoint of a concentration-inhibition curve.

The record behind these values is ChEMBL document CHEMBL3585306, “Anti-HIV diarylpyrimidine-quinolone hybrids and their mode of action” (Bioorg Med Chem, 2015).
